The text below walks through data of paper PMC10334471, “Tumor-targeted dual-action NSAID-platinum(IV) anticancer prodrugs” (Inorganic Chemistry Frontiers, 2023).

The data set relates to CT26 allografts. To be noted: 9 mg kg^−1 i.v., female Balb/c mice; experiment stopped on day 19, drop in body weight. As to the method:
All experiments were executed according to the regulation of the Ethics Committee for the Care and Use of Laboratory Animals at the Medical University Vienna. 8–12 weeks old BALB/c were kept in a pathogen-free environment with a 12 h light dark-cycle with ad libitum access to food and water. Every procedure was performed in a laminar airflow under sterile condition. Tumor growth and possible side effects of drug treatment were evaluated by daily recording the tumor size by caliper measurement according to the formula length × width^2/2 and parameters of the animal's overall health conditions.
CT26 cells (5 × 10^5 cells in 50 μl serum-free medium) were injected s.c. into the right flank of female BALB/c mice. […] Asa was treated orally using 50 mg kg^−1 in 5% DMSO/0.9% NaCl. Every day, the animals were monitored for the overall health conditions. Additionally, tumor size was measured. In case of a decreased body weight of ∼20% or ulcerated tumors, animals were sacrificed by cervical dislocation and tumors as well as organs were collected.

Regarding `O=C1[O][Pt]2([NH][C@@H]3CCCC[C@H]3[NH]2)[O]C1=O` [Oxaliplatin, oxaliplatin], the Toxicity entry was “toxic side effects”.
